What was measured:
NK-yl ascites tumor = assay: Combinations with known cytostatic agents in NK-ly ascites tumor; type: in vivo, CFLP mice; conditions: with cyclophosphamide, carnomustine, degranol, dibromo dulcitol or dibromo mannitol
tumor cells = assay: Testing of antitumor effect (overall)
NK-ly-ascites lymphoma = NK-ly-ascites lymphoma in vivo; parameters: species or system CFLP male mice; conditions: dose-dependant

| Compound | Antitumor effect of combination vs cytostatic agent alone (NK-yl ascites tumor) | Immunodepression of combination vs cytostatic agent alone (NK-yl ascites tumor) | Antitumor effect (tumor cells) | Survival rate and lifetime (NK-ly-ascites lymphoma) |
| --- | --- | --- | --- | --- |
| N=C(N)NC(=N)SCCBr | the antitumor effect was strengthened | immunodepression decreased | outstanding antitumor effect | increase survival rate and lifetime in a dose-dependant manner |
| N=C(N)NC(=N)SCCCl | the antitumor effect was strengthened | immunodepression decreased | outstanding antitumor effect | increase survival rate and lifetime in a dose-dependant manner |

Reference: patent US4710578A, “Isothiuronium salts” (Peremartoni Vegyipari Vallalat, priority 1984, dated 1987)
